# Article PMC11272584 (Nature Metabolism, 2024)
# Residue numbers refer to the chain shown, from its start.
# Columns and labels:
# GIPR E418K = target: T1, GIPR E418K (Homo sapiens, UniProt P48546, E418K); test: cAMP accumulation; type: cell-based; design: host or cells: HEK293
# T1 sequence (P48546 22-466 E418K): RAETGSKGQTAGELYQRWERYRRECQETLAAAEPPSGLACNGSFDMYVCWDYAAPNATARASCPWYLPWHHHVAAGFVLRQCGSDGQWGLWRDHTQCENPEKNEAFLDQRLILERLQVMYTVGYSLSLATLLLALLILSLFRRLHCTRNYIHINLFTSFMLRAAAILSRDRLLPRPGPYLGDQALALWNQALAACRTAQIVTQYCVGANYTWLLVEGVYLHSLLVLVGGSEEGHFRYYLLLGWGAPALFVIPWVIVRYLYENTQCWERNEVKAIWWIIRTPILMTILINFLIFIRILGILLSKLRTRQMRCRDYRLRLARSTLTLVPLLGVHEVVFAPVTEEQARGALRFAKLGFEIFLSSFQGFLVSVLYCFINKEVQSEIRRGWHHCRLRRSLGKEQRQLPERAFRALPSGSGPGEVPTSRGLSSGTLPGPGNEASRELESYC
# GIPR E288G = target: T2, GIPR E288G (Homo sapiens, UniProt P48546, E288G); test: cAMP accumulation; type: cell-based; design: host or cells: HEK293
# T2 sequence (P48546 22-466 E288G): T1 sequence (P48546 22-466 E418K) with E267G, K397E
# GIPR R12Q = target: T3, GIPR R12Q (Homo sapiens, UniProt P48546); conditions: GIPR R12Q (ECD), mean, n = 5, duplicate
# T3 sequence (P48546 22-466): T1 sequence (P48546 22-466 E418K) with K397E
# GIPR A207V = target: T4, GIPR A207V (Homo sapiens, UniProt P48546, A207V); conditions: GIPR A207V (ECL1), mean, n = 4, duplicate
# T4 sequence (P48546 22-466 A207V): T1 sequence (P48546 22-466 E418K) with A186V, K397E
# GIPR T116R = target: T5, GIPR T116R (Homo sapiens, UniProt P48546, T116R); conditions: GIPR T116R (ECD), mean, n = 5, duplicate
# T5 sequence (P48546 22-466 T116R): T1 sequence (P48546 22-466 E418K) with T95R, K397E
substance,measurement,setting,value
glucose-dependent insulinotropic polypeptide [GIP],cAMP (Emax),"GIPR E418K; HEK293, GIP(1–42) 1 pM–100 nM, 30 min 37 °C, mean of n = 6",80 % of WT GIPR activity
same,logEC50 (cAMP),"GIPR E418K; HEK293, Hill slope 1.0, mean of n = 6",-11.4
same,cAMP (Emax),"GIPR E288G; HEK293, GIP(1–42) 1 pM–100 nM, 30 min 37 °C, mean of n = 7",83 % of WT GIPR activity
same,logEC50 (cAMP),"GIPR E288G; HEK293, Hill slope 1.0, mean of n = 7",-8.5
same,logEC50 (Arrestin),GIPR R12Q; Hill slope 1.0,-8.7
same,Arrestin (Emax),GIPR R12Q; normalized to WT GIPR,92
same,logEC50 (Arrestin),GIPR A207V; Hill slope 1.0,-9.4
same,Arrestin (Emax),GIPR A207V; normalized to WT GIPR,83
same,logEC50 (Arrestin),GIPR T116R; Hill slope 1.0,-8.7
same,Arrestin (Emax),GIPR T116R; normalized to WT GIPR,62
